Data published in patent publication US10836770B2, “Imidazopyridazine compounds useful as modulators of IL-12, IL-23 and/or INF alpha responses” (priority 2016, dated 2020).

The chains behind the UniProt entries cited, without tags or fusion partners. A line that says so, or that is headed by a name, gives the form on record, which may keep a tag or linker. Residues count along the entry.
UniProt P29597, 575-869 with tags or gaps: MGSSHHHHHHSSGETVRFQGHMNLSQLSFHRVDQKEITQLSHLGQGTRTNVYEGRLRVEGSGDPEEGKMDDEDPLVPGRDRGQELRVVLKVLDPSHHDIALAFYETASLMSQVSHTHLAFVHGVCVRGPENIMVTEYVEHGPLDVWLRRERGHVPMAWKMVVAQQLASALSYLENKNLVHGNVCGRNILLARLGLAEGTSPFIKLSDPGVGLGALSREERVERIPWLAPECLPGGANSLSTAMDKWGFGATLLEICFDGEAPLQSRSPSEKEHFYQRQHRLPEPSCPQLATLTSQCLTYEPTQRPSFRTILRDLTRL

What was measured:
[1] = target: recombinantly expressed His-tagged protein corresponding to amino acids 575-869 of human Tyk2 (Homo sapiens, UniProt P29597); test: Probe displacement assay (scintillation proximity, radiolabeled probe); type: binding; details: read-out: Probe Displacement EC50; 2.5 nM Tyk2 (575-869), 40 nM [3H] probe, 30 minutes at room temperature
[2] = system: IL-23-stimulated Kit225 T cells with STAT-dependent luciferase reporter; test: Kit225 T cell assay, IL-23 stimulated STAT-dependent luciferase reporter; type: cell-based; details: read-out: IL-23 Kit225 Reporter, LE (IC50), 20 ng/mL human recombinant IL-23, 5-6 hours
[3] = system: IFNα-stimulated Kit225 T cells with STAT-dependent luciferase reporter; test: Kit225 T cell assay, IFNα stimulated STAT-dependent luciferase reporter; type: cell-based; details: read-out: IFNa Kit225 Reporter, LE (IC50), 200 U/mL human recombinant IFNα, 5-6 hours

`CNc1cc(Nc2ccoc2C(=O)NCCOC)nn2c(C(=O)NC3CC3)cnc12` showed an EC50 [1] of 0.00273 µM, an IC50 [2] of 0.05 µM and an IC50 [3] of 0.1 µM.
